Experimental data reported in article PMC3812274 (Biochemistry, 2013).

Biological target: N-terminal SNARE motif of human SNAP-25B ([…]) (human)
Experiment: assembly of an SDS-resistant complex

B1: C-terminal SNARE motif of human SNAP-25B (residues 141-203) (domain or fragment, UniProt P60880-1 141-203, looked up)
chain: ARENEMDENLEQVSGIIGNLRHMALDMGNEIDTQNRQIDRIMEKADSNKTRIDEANQRATKML
binding result: binds
